The experiment has as its target MCM3-HA (HA epitope-tagged MCM3) (UniProt P25206). Kind of experiment: cell-based or functional assay.

By UniProt entry, the sequences of proteins in these tests, tags left out. Where a name states a change or a piece, a line headed by the entry shows the natural chain unless it says otherwise.
UniProt P25206: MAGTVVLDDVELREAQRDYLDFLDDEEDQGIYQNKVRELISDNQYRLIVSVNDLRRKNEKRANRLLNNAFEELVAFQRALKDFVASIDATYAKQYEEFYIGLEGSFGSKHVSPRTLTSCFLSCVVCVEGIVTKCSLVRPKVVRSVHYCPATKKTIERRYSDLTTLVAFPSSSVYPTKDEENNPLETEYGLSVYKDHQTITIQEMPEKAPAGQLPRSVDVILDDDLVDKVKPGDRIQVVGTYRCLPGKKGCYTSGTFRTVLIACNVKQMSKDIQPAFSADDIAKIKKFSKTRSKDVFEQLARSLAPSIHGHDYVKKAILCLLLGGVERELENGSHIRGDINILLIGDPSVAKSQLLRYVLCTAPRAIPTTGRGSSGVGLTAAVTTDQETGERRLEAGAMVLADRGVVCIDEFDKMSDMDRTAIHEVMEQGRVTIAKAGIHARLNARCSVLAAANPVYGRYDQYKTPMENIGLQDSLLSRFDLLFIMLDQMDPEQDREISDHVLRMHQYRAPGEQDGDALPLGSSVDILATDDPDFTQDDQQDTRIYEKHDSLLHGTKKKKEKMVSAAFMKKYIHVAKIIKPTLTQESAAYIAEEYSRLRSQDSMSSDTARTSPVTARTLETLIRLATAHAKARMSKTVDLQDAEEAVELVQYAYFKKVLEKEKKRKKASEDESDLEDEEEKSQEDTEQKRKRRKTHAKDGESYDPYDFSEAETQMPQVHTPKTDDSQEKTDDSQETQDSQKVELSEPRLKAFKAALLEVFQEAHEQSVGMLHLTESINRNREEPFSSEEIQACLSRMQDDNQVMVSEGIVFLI

The values that follow come from US20080233109A1.

With Gmap80-GFP (from UniProt P42212 1-238), the expression of MCM3 in the cytoplasm (percent of cells) is 4% and the nuclear expression level of Gmap80-GFP on cotransfection with MCM3 (percent of cells) is 64%.
